According to publication PMC4895914 (2014):

What was measured:
Assay in all cases: fluorescence polarization
[1] = target: T1, 2a* (not fully specified; reading uncertain)
T1 chain: {FITC-PEG}-PL[His(π-(CH2)8Ph)]S[pT]

[2] = target: T2, 3m* (not fully specified; reading uncertain)
T2 chain: {FITC-PEG}-PL[His(π-(CH2)8Ph,τ-CH2CH2CH(OH)CH2OH)]S[pT]

[3] = target: T3, 3c* (not fully specified (residue 3); reading uncertain; also: His N(tau)-hydroxyalkyl, not given here)
T3 chain: {FITC-PEG}-PLHS[pT]

B1: Plk1 PBD PBD (protein)
chain: SIAPSSLDPSNRKPLTVLNKGLENPLPERPREKEEPVVRETGEVVDCHLSDMLQQLHSVNASKPSERGLVRQEEAEDPACIPIFWVSKWVDYSDKYGLGYQLCDNSVGVLFNDSTRLILYNDGDSLQYIERDGTESYLTVSSHPNSLMKKITLLKYFRNYMSEHLLKAGANITPREGDELARLPYLRTWFRTRSAIILHLSNGSVQINFFQDHTKLILCPLMAAVTYIDEKRDFRTYRLSLLEEYGCCKELASRLRYARTMVDKLLSSRSASNRLKAS
In the case of B1, the Kd [1] is reported as 12 nM, the Kd [2] is reported as 3 nM and the Kd [3] is reported as 2 nM.

Square brackets hold non-standard residues; d marks the D form. Ends that are not written are not given here. * marks the point of attachment. His(π-(CH2)8Ph,τ-CH2CH2CH(OH)CH2OH) = His N(pi)-(CH2)8Ph and N(tau)-CH2CH2CH(OH)CH2OH; FITC = O=C1OC2(c3ccc(O)cc3Oc3cc(O)ccc32)c2ccc(NC(=S)*)cc21; His(π-(CH2)8Ph) = N[C@@H](Cc1cncn1CCCCCCCCc1ccccc1)C(=O)O; pT = C[C@@H](OP(=O)(O)O)[C@H](N)C(=O)O; PEG = not defined here
